Amino acid sequences for entries named in this document (tags omitted). A change or cut given only in a name is not applied to a line headed by its entry.
UniProt O00408, whole entry: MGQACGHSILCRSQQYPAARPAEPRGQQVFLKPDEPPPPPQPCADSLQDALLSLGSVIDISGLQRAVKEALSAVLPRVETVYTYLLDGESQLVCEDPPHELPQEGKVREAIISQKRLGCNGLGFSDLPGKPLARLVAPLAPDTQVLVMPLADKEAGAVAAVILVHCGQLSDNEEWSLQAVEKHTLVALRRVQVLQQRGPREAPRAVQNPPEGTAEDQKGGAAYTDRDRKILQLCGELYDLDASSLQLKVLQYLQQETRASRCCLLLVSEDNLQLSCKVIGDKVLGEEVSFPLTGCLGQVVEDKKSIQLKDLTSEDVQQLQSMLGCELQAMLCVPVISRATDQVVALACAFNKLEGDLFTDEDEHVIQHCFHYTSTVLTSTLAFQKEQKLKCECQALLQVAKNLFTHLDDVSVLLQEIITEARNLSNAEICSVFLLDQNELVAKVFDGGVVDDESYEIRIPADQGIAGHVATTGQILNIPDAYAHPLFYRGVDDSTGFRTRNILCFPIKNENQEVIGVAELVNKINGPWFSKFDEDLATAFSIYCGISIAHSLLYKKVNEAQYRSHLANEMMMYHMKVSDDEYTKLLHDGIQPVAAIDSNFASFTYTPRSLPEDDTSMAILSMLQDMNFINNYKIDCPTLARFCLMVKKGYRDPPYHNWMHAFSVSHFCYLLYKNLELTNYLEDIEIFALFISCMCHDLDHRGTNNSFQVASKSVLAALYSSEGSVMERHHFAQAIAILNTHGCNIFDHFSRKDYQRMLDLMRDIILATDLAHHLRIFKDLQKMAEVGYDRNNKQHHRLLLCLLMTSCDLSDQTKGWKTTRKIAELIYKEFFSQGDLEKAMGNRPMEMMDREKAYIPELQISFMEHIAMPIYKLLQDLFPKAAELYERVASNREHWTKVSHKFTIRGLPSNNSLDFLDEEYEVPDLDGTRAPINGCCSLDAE
UniProt O76083: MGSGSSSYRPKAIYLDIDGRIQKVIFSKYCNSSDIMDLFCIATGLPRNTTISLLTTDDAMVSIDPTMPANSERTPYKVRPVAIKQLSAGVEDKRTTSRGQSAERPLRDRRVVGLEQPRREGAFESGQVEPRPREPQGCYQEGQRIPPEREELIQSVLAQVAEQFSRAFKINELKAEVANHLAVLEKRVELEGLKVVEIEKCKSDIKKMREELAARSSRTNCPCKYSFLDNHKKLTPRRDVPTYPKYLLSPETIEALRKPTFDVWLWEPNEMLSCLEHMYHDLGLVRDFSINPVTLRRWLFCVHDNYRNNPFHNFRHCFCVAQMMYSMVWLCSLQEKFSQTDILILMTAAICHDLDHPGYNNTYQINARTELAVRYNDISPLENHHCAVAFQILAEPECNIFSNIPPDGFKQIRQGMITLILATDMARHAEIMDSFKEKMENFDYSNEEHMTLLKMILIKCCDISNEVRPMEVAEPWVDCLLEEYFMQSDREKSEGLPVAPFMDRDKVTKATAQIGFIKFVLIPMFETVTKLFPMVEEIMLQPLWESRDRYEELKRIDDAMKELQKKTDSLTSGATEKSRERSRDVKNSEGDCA

According to ChEMBL document CHEMBL3400105, “Discovery of novel pyrazolopyrimidinone analogs as potent inhibitors of phosphodiesterase type-5” (Bioorg Med Chem, 2015):

How the values were obtained:
[1] = target: cGMP-dependent 3',5'-cyclic phosphodiesterase (Homo sapiens, UniProt O00408); assay: Inhibition of PDE2A1 (unknown origin) using fluorescently labeled cAMP substrate by fluorescence polarization assay
[2] = target: High affinity cGMP-specific 3',5'-cyclic phosphodiesterase 9A (Homo sapiens, UniProt O76083); assay: Inhibition of GST-tagged recombinant human PDE9A2

IC50 [1]: 63 µM
IC50 [2]: 3.6 µM
SMILES: CCCc1nn(C)c2c(=O)[nH]c(-c3cc(S(=O)(=O)N4CCN(C)CC4)ccc3OCC)nc12
